Here are results for 51 compounds from PubChem BioAssay AID485347 (National Center for Advancing Translational Sciences (NCATS), 2010).

The chains behind the UniProt entries cited, without tags or fusion partners.
UniProt P14416, whole entry, looked up: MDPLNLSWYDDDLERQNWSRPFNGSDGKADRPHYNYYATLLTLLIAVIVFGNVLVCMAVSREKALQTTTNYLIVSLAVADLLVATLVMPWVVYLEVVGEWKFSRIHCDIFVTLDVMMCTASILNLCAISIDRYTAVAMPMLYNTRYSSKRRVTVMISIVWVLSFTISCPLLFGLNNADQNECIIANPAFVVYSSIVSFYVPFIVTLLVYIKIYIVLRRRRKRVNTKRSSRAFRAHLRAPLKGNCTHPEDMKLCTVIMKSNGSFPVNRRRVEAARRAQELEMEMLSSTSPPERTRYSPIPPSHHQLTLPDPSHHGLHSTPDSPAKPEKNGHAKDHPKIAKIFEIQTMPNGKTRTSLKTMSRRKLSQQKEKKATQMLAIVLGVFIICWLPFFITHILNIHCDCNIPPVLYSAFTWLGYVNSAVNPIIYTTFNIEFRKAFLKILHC

The structures appear in SMILES notation. The list shows a part of the results, in another mix than the full data. The source made the active and inactive calls.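 The calls were made as follows: active = potentiation over 3 SD above the plate norm (cut at about 30% in these data); inactive = the rest.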

This test addresses D(2) dopamine receptor (Homo sapiens) (UniProt P14416). The experiment in a line: HTS Assay for Positive Allosteric Modulators of the Human D2 Dopamine Receptor: Primary Screen for Potentiators. Also: 0% is about no effect. Conditions: HEK293 T-REx D2, calcium flux, EC20 dopamine potentiation; at 10 µM; stronger effect = higher value. An excerpt: NIH Chemical Genomics Center [NCGC] NIH Molecular Libraries Probe Centers Network [MLPCN] MLPCN Grant: NS064831-01 Assay Submitter (PI): David Sibley Dopamine receptors (DARs) are involved in the etiology and/or therapy of a number of neuropsychiatric and endocrine disorders. For instance, all receptor-based antiparkinsonian drugs work via stimulating the D2 DAR subtype whereas all FDA-approved antipsychotic agents are antagonists of this receptor. […] There are three different types of allosteric modulators that we are seeking, two of which will stimulate or augment receptor signaling, allosteric agonists and potentiators, while the third, allosteric antagonists, will attenuate receptor signaling. The present primary screening assay measures compound potentiation of an EC20 dopamine response by tracking calcium flux in a […], inducible Hek293 Trex D2 cell line.
Freshly passaged cells are plated in 1536 well black, clear bottom plates at a density of 4000 cells/well in 3 ul of complete media containing 1x tetracycline inducer. After an overnight incubation at 30 C in 5% CO2, cells are loaded with 2 ul of the no wash Calcium Assay Kit (ABD Bioquest) and incubated at room temperature for 30 to 90 minutes. A 10 cycle (1 second/cycle) baseline measurement is taken and then the FDSS online 1536 pintool delivers 23 nl of compound library (as well as dopamine controls) to the plate. The plate is measured for kinetically at 1 cycle/sec for 180 seconds and is considered to be the agonist portion of the assay (eg, compounds which activate a positive calcium response during this portion are flagged as potential agonists). Following the 180 second read, 1 ul of an EC20 of dopamine is delivered by an onboard pipette head. Measurements are taken kinetically for an additional 180 seconds.
Take `CC1CCN(C(=O)Oc2c(Cl)cc(Cl)c3cccnc23)CC1`: the potentiation is inactive: 6.01%.
On to `CC(C)=N/N=C(\N)N[N+](=O)[O-]`, for which the potentiation was inactive: 22.7%.
For `CN(C)C(=O)OCCc1n(C)cc[n+]1C` the value was inactive: 5.16%; for `CCN(/C(=N/P(=O)(N1CCOCC1)N1CCOCC1)N1CCOCC1)c1ccc(OC)cc1`, inactive: 2.54%.
As for `Nc1ccc([As](=O)(O)c2ccc(N)cc2)cc1`, the potentiation is inactive: -0.455%.
For `C[N+]1=C2C=CC=CC=C2SC12C([N+](=O)[O-])=CC([N+](=O)[O-])=C[C-]2[N+](=O)[O-]` (stereo unspecified) the value was inactive: 2.21%; for `Cc1ccc(NP(=O)(Oc2ccccc2)Oc2ccccc2)nc1`, inactive: -4.36%; for `CCc1nc2c(n1)c1c(non1O)c1c2no[n+]1[O-]`, inactive: -4.14%.
Under `O=[N+]([O-])c1cccc2n[nH]nc12` stands inactive: 4.68%; under `CC(=O)N1C2C3N(C(C)=O)C1C1N(C(C)=O)C(C(N1C(C)=O)N3C(C)=O)N2C(C)=O`, inactive: -8.98%.
On to `COc1ccc(C2=NCC(CBr)S2)cc1` (stereo unspecified), for which the potentiation is inactive: 9.96%.
For the compound `O=C(O)CNc1ccc([As](=O)(O)O)cc1`, the potentiation was inactive: -2.2%.
For `O=[N+]([O-])c1cccc(NC2=NCC(CBr)S2)c1` (stereo unspecified) the value was inactive: -8.15%.
On to `O=[N+]([O-])c1ncn(CCn2ncnc2[N+](=O)[O-])n1`, for which the potentiation is inactive: 0.329%.
For `CC(C)(C)C(=O)NC(Sc1ccncn1)C(Cl)(Cl)Cl` (stereo unspecified) the value was inactive: 4.3%; for `O=C(Nc1cc([As](=O)(O)O)ccc1O)c1ccccc1`, inactive: -8.65%; for `Nc1cccc2ccc([As](=O)(O)O)cc12`, inactive: 16.1%.
In the case of `CCN(N=Nc1nonc1N)c1nonc1N`, the potentiation is inactive: 14.2%.
Take `O=[N+]([O-])c1cc([N+](=O)[O-])c(CCN2CCOCC2)c([N+](=O)[O-])c1`: the potentiation is inactive: 2.77%.
In the case of `CCOP(=O)(Nc1ccccc1)OCC`, the potentiation is inactive: 4.93%.
For the compound `Cc1cc(SC(NC(=O)c2ccc(F)cc2)C(Cl)(Cl)Cl)ncn1` (stereo unspecified), the potentiation was inactive: -1.93%.
Under `Cc1ccc(NP(=O)(Oc2ccccc2F)Oc2ccccc2F)nc1` stands inactive: 0.137%; under `O=P(Nc1nc2ccc(Cl)cc2s1)(c1ccccc1)c1ccccc1`, inactive: -1.9%.
For `O=C(O)c1ccccc1[As](=O)(O)O` the value was inactive: 15.1%; for `CC(=O)Nc1ccc([As](=O)(O)O)cc1`, inactive: 0.65%; for `Oc1ccccc1CNc1ccccn1`, inactive: 10.4%.
For `Cc1c2non([O-])c-2c(C)[n+](=O)[n+]1[O-]` the value was inactive: 11%; for `O=C(NC(Sc1ccncn1)C(Cl)(Cl)Cl)c1ccccc1` (stereo unspecified), inactive: -0.203%; for `Nc1cc(N)c2nonc2c1[N+](=O)[O-]`, inactive: -4.3%.
With `Clc1ccc(Cl)c(NC2=NCC(CBr)S2)c1` (stereo unspecified), the potentiation is inactive: 6.26%.
Under `CN1CCCC(OC(=O)C(c2ccccc2)c2ccccc2)C1` (stereo unspecified) stands inactive: -21.4%.
In the case of `COc1ccccc1OP(=O)(Nc1ccc(C)cn1)Oc1ccccc1OC`, the potentiation was inactive: -3.67%.
Under `Cc1ccc(OP(=O)(Nc2nccs2)Oc2ccc(C)cc2)cc1` stands inactive: -4.57%; under `CN(C(=O)Cc1ccc(Cl)c(Cl)c1)[C@H]1CCCC[C@H]1N1CCCC1`, inactive: -6.16%; under `Cc1ccc(N/C(=N/P(=O)(N2CCOCC2)N2CCOCC2)N2CCOCC2)cc1`, inactive: 9.38%.
`NC(=O)c1cc([N+](=O)[O-])cc([N+](=O)[O-])c1N`: the potentiation is inactive: 9.73%.
As for `CC(=O)Nc1ccc([As](=O)(O)O)c(O)c1`, the potentiation is inactive: -2.16%.
Take `CC(=O)Nc1ccc(Oc2c([N+](=O)[O-])cc([N+](=O)[O-])cc2[N+](=O)[O-])cc1`: the potentiation was inactive: 3.42%.
Consider `C[C@@H]1C=CCP(=O)(Oc2ccccc2)O1` (stereo partly specified), for which the potentiation is inactive: 10.5%.
Under `C[C@H]1OP(=O)(Oc2ccccc2)C[C@@H]2O[C@@H]21` (stereo partly specified) stands inactive: 3.77%.
For the compound `CC(=O)c1ccc(N2CC2c2ccncc2)cc1` (stereo unspecified), the potentiation was inactive: 14.1%.
For `CC(C)(C)C(=O)NC(Sc1ccccc1)C(Cl)(Cl)Cl` (stereo unspecified) the value was inactive: 1.33%; for `O=P1(Nc2nc3ccc(Cl)cc3s2)COc2ccccc2O1` (stereo unspecified), inactive: -8.62%.
On to `CCOc1ccc(C2=NCC(CBr)S2)cc1` (stereo unspecified), for which the potentiation was inactive: 5.14%.
Under `Cc1ccccc1OP(=O)(Nc1ccccn1)Oc1ccccc1C` stands inactive: 8.9%; under `CN(C)C(=O)Oc1noc2ccccc12`, inactive: 4.48%.
For `O=c1c2cc([N+](=O)[O-])ccc2[nH]c2c([N+](=O)[O-])cc([N+](=O)[O-])cc12` the value was inactive: -5.16%.
As for `O=C(OC1CN2CCC1CC2)c1ccccc1` (stereo unspecified), the potentiation was inactive: 6.63%.
For `CCC(=O)N1C2C3N(C(=O)CC)C1C1N(C(=O)CC)C(C(N1C(=O)CC)N3C(=O)CC)N2C(=O)CC` the value was inactive: -3.41%; for `COC(=O)c1cc2c(s1)N=C(c1ccccc1)N(C)P2(=O)N1CCOCC1` (stereo unspecified), inactive: -7.15%; for `Cc1ccc(OP(=O)(Nc2ccccn2)Oc2ccc(C)cc2)cc1`, inactive: 1.71%.
